Results from patent publication US20230233690A1 (published 2023).

Amino acid sequences for entries named in this document (tags omitted). A change or cut given only in a name is not applied to a line headed by its entry.
UniProt P10275: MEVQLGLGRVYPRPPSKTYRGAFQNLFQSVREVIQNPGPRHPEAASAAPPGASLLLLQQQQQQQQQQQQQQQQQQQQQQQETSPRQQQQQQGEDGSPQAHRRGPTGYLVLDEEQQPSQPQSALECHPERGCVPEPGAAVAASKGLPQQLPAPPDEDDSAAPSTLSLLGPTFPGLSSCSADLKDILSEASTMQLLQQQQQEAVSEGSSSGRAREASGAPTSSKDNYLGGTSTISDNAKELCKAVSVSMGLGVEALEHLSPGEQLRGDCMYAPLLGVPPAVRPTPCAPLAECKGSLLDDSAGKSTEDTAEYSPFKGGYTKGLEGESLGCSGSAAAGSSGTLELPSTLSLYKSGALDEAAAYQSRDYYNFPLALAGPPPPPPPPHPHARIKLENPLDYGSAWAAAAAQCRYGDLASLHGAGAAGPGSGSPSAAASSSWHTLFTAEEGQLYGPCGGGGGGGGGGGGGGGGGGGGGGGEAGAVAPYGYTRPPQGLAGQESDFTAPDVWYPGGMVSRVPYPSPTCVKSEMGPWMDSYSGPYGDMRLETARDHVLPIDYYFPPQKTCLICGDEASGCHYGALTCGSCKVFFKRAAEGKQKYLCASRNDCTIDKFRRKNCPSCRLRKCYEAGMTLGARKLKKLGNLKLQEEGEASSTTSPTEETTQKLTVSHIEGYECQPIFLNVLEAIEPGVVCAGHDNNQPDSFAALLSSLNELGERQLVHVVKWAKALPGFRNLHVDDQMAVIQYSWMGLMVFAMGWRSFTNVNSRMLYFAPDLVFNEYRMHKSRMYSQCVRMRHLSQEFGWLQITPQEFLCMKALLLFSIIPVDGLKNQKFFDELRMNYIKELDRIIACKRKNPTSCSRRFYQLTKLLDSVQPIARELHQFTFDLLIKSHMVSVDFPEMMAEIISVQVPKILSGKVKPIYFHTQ

Biological target: AR protein (Homo sapiens, UniProt P10275)
Test: Western blotting of AR protein degradation in VCaP cells
Format: cell-based
Conditions: 1 μM

CN(c1ccc(C#N)c(Cl)c1)[C@H]1CC[C@H](NC(=O)c2ccc(N3CCN(C4CCN(c5ccc6c(c5)C(=O)N(C5CCC(=O)NC5=O)C6=O)CC4)CC3)cc2)CC1 (stereo partly shown) [Cpd. No. 235, N-((1r,4r)-4-((3-chloro-4-cyanophenyl)(methyl)amino)cyclohexyl)-4-(4-(1-(2-(2,6-dioxopiperidin-3-yl)-1,3-dioxoisoindolin-5-yl)piperidin-4-yl)piperazin-1-yl)benzamide]
% AR protein degradation in VCaP Cells: 95%
